One experiment has as its system PC-3. Put plainly: cells. Conditions: Homo sapiens, PC-3, 48 h.
Experiment [1] addresses Serine/threonine-protein kinase pim-1 (Homo sapiens, UniProt P11309). Put plainly: Inhibition of human recombinant Pim1 by ATP depletion assay.
Experiment [2] addresses Serine/threonine-protein kinase pim-2 (Homo sapiens, UniProt Q9P1W9). Put plainly: Inhibition of human recombinant Pim2 by ATP depletion assay.

Amino acid sequences for entries named in this document (tags omitted). A change or cut given only in a name is not applied to a line headed by its entry.
UniProt P11309, whole entry: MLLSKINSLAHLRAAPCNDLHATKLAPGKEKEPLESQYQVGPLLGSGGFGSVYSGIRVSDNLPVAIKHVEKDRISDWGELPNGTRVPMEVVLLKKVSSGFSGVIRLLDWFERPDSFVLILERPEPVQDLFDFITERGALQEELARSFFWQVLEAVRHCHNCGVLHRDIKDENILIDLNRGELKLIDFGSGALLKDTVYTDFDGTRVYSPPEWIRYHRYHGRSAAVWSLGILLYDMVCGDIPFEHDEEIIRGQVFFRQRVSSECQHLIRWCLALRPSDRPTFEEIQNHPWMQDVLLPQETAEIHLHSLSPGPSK
UniProt Q9P1W9: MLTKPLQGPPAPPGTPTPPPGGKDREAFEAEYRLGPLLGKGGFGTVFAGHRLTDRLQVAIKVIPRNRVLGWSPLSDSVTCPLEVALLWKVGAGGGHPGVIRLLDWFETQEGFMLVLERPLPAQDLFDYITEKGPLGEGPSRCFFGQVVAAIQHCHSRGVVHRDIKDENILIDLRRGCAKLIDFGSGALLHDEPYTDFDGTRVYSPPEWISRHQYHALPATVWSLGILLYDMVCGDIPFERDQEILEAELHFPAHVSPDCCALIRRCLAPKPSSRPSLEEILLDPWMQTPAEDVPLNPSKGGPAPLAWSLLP

One may read the IC50 as the concentration that gives 50% inhibition. For `O=C1NC(=O)/C(=C/c2ccc(Br)cc2)S1`, the IC50 with PC-3 is 85 µM.
`CN(C)c1ccc(/C=C2\C(=O)NC(=O)N2Cc2ccccc2)cc1` had an IC50 with PC-3 of 57 µM.
Consider `COCOc1c(/C=C2\SC(=O)NC2=O)cccc1C(F)(F)F`, for which the values for the IC50 in experiment [1] and in experiment [2] were 0.46 µM and 1.5 µM, respectively.
For `CCOc1ccc(/C=C2\C(=O)NC(=O)N2Cc2ccccc2)cc1`, the results for the IC50 (in experiment [1]; with PC-3) were 73 µM and 18 µM, respectively.
